Experiment: in vivo
Conditions: female, NMRI, mouse

With `CC[C@H](C)[C@H](NC(=O)[C@@H]1CCCN1C(=O)CNC(=O)[C@H](Cc1ccccc1)NC(=O)[C@H](CC(N)=O)NC(=O)[C@H](CC(N)=O)NC(=O)[C@H](CO)NC(=O)[C@H](CO)NC(=O)[C@H](Cc1c[nH]cn1)NC(=O)[C@@H](NC(=O)[C@H](CC(C)C)NC(=O)[C@H](Cc1ccccc1)NC(=O)[C@H](CC(N)=O)NC(=O)[C@H](C)NC(=O)[C@H](CC(C)C)NC(=O)[C@H](CCCNC(=N)N)NC(=O)[C@H](CCC(N)=O)NC(=O)[C@@H](NC(=O)[C@H](C)NC(=O)[C@@H]1CSSC[C@H](NC(=O)[C@@H](N)CCCCN)C(=O)N[C@@H](CC(N)=O)C(=O)N[C@@H]([C@@H](C)O)C(=O)N[C@@H](C)C(=O)N[C@@H]([C@@H](C)O)C(=O)N1)[C@@H](C)O)C(C)C)C(=O)N[C@@H](CC(C)C)C(=O)N1CCC[C@H]1C(=O)N1CCC[C@H]1C(=O)N[C@H](C(=O)N[C@@H](CC(N)=O)C(=O)N[C@H](C(=O)NCC(=O)N[C@@H](CO)C(=O)N[C@@H](CC(N)=O)C(=O)N[C@H](C(=O)N[C@@H](Cc1ccc(O)cc1)C(N)=O)[C@@H](C)O)C(C)C)[C@@H](C)O` [pramlintide] the half-life (iv) was 6 min, the bioavailability (sc) was 46% and the half-life (sc) was 18 min.

Source: patent EP3046573B1, “AMYLIN ANALOGUES” (Zealand Pharma A/S, priority 2013, dated 2015)
